In ChEMBL document CHEMBL1138750, “Design, synthesis, and biological evaluation of 1,2,3,7-tetrahydro-6h-purin-6-one and 3,7-dihydro-1h-purine-2,6-dione derivatives as corticotropin-releasing factor(1) receptor antagonists” (J Med Chem, 2004):

Molecular target: T1, Corticotropin-releasing factor receptor 1 (Rattus norvegicus, UniProt P35353)
T1 sequence (P35353 whole entry): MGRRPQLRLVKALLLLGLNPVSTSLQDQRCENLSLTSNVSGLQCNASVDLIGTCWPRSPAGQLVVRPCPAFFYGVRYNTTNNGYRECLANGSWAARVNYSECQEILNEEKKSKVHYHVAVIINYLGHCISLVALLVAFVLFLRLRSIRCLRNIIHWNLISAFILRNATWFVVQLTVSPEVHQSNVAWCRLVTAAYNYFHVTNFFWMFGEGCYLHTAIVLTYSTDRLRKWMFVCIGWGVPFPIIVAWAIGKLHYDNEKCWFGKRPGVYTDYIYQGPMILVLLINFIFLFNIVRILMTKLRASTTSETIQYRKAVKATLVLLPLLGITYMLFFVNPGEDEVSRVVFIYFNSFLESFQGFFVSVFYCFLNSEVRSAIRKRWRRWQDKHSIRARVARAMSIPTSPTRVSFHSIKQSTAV
Experiment: Inhibition of [125I]- Ovine CRF binding to rat frontal cortex corticotropin releasing factor 1 receptor
Assay type: tissue-based
How it was run: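 Frozen rat frontal cortex homogenate (25 μg/well) in 50 mM HEPES pH 7.0 with 10 mM MgCl₂, 2 mM EGTA, protease inhibitors, 0.005% Triton X-100, bacitracin and 0.1% ovalbumin. Bound ligand collected by filtration on PEI-treated filters and gamma counted. Nonspecific binding defined with 1 μM DMP696.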

| IC50 [µM] | SMILES |
| --- | --- |
| 9 | CCc1nc2c(n1Cc1cccc3ccccc13)C(=O)N(C)CN2c1ccc(Cl)cc1Cl |
| 2.99 | CCc1nc2c(c(=O)n(C)c(=O)n2-c2ccc(Cl)cc2Cl)n1C(CC)CC |
